Laboratory results taken from US20140066438A1, “DOPAMINE RECEPTOR D2 ANTAGONIST FOR PREVENTION AND TREATMENT OF FLAVIVIRUS INFECTION” (Academia Sinica, priority 2012, published 2014).

Test system: HEK293T cells
Test: Drug cytotoxicity assays (AlamarBlue, XTT, LDH)
Assay type: cell-based, human
Settings: PCZ up to 25 μM, 24 h
Method: (A) PCZ cytotoxicity test. HEK293T cells were treated with solvent control or the indicated concentrations of PCZ for 24 h. AlamarBlue, XTT, and LDH assays were carried out to determine cell viability, cell proliferation, and cytotoxicity, respectively. Data are mean and standard deviation (SD) of 3 independent experiments. […] Representative immunofluorescence microscopy (400× magnification) of cells immunostained for DENV-2 NS3 (green) and DAPI for nuclei (blue). […] Plaque-forming assay of viral progeny production (plaque forming unit, PFU/ml) in culture supernatants of cells in panel C (D). Data are mean and SI) of 2 independent experiments. *P<0.05.
Cells treated with the indicated doses of PCZ were analyzed by use of the Cytotoxicity Detection Kit (LDH) (Roche), Cell Proliferation Kit (XTT) (Roche) and ALAMARBLUE® Cell Viability Assay (Life Technologies). Briefly, cells treated with PCZ at the indicated doses for overnight underwent XTT, LDH and ALAMARBLUE® assay. Sample absorbance from XTT and LDH assays was determined by use of an ELISA reader (Molecular Devices) at 450 and 490 nm, respectively. For AlamarBlue viability assay, fluorescence intensity was monitored at 570 nm excitation and 585 nm emission by use of a microplate reader (Molecular Devices).

prochlorperazine dimethanesulfonate [PCZ-Novamin]
cell viability, cell proliferation, cytotoxicity: did not significantly affect cell viability, cell proliferation, or cytotoxicity
